# Experimental data: ChEMBL document CHEMBL2218924, “A broad activity screen in support of a chemogenomic map for kinase signalling research and drug discovery” (Biochem J, 2013); call rule not given here
# Amino acid sequences for entries named in this document (tags omitted). A change or cut given only in a name is not applied to a line headed by its entry.
# UniProt P42684, whole entry: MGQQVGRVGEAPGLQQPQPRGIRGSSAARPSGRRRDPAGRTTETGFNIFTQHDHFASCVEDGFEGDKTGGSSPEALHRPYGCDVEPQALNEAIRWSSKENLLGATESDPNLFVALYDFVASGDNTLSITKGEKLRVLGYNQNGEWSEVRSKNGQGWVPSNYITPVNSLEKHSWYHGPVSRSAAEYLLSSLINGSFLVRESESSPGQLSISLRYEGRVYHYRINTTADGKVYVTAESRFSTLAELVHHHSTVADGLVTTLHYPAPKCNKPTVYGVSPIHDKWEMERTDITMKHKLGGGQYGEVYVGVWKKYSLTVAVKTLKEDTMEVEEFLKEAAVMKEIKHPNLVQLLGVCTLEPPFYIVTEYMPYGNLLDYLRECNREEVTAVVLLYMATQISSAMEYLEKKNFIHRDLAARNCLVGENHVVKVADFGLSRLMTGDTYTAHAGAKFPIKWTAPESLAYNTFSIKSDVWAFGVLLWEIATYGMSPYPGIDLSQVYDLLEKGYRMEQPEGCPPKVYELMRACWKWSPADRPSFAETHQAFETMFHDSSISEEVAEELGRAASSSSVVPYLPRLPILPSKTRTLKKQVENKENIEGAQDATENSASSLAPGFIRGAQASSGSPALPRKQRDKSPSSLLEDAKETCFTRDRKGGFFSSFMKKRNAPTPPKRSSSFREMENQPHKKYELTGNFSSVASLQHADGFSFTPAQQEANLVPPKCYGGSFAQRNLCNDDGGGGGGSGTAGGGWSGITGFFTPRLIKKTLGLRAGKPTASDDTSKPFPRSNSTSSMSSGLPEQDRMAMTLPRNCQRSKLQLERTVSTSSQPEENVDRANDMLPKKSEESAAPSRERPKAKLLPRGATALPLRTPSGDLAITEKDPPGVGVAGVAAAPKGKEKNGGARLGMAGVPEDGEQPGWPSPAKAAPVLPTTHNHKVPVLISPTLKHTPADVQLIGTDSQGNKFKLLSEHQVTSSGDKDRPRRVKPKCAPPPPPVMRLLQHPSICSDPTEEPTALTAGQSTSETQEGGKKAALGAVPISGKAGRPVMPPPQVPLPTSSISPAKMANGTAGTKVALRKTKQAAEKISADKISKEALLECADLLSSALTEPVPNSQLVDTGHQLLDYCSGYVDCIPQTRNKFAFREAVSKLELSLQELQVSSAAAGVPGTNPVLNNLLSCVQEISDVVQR
# UniProt O14965: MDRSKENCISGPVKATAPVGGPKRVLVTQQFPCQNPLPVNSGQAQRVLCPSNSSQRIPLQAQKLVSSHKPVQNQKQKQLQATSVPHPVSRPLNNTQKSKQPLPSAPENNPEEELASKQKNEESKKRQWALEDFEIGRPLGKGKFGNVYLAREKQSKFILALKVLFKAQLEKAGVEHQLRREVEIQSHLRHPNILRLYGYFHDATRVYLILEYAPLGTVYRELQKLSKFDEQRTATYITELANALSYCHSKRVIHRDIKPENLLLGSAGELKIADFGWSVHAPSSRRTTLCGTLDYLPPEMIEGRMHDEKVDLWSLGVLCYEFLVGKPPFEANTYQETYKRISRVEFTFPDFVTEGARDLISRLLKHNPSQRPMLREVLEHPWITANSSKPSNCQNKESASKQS
# UniProt Q00526: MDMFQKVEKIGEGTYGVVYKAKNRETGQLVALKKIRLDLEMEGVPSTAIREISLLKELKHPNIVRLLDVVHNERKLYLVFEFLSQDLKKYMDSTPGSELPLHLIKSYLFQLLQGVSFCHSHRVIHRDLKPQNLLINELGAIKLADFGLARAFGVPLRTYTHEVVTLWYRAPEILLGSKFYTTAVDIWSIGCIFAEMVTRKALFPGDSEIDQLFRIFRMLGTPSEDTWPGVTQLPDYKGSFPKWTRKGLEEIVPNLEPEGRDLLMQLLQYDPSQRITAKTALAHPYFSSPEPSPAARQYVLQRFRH
# UniProt Q15303, whole entry: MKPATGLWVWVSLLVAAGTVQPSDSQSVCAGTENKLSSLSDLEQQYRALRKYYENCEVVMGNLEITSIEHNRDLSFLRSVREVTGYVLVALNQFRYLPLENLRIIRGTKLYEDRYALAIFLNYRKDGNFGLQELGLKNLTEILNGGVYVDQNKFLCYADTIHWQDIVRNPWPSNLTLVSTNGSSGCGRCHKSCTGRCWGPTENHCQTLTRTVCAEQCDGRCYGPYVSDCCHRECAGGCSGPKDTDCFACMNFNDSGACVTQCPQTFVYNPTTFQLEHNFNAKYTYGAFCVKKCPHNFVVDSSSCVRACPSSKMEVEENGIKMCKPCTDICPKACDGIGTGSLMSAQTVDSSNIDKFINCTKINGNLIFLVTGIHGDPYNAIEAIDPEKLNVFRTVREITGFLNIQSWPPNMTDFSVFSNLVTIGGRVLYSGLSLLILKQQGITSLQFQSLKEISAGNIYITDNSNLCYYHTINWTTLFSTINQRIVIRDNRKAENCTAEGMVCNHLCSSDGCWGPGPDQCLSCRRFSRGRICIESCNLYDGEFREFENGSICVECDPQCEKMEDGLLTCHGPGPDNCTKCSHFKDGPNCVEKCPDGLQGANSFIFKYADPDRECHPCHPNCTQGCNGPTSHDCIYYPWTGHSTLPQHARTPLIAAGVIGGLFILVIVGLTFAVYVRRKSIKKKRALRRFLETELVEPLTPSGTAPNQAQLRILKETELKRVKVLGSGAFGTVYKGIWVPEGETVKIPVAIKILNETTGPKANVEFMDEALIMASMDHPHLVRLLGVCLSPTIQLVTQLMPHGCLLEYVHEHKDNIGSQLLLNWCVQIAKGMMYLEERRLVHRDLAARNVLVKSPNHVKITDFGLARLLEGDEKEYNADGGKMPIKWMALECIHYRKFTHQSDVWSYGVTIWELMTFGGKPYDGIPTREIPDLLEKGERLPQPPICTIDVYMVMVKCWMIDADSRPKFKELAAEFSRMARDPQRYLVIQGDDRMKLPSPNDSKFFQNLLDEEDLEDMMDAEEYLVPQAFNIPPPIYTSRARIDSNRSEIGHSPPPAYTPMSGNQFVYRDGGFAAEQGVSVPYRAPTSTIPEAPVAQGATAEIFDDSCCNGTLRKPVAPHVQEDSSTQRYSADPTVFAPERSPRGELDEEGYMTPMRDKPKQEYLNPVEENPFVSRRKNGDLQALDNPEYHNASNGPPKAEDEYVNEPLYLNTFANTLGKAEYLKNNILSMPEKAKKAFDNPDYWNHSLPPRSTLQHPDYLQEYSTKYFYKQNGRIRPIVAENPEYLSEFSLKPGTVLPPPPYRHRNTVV
# UniProt P35916, whole entry: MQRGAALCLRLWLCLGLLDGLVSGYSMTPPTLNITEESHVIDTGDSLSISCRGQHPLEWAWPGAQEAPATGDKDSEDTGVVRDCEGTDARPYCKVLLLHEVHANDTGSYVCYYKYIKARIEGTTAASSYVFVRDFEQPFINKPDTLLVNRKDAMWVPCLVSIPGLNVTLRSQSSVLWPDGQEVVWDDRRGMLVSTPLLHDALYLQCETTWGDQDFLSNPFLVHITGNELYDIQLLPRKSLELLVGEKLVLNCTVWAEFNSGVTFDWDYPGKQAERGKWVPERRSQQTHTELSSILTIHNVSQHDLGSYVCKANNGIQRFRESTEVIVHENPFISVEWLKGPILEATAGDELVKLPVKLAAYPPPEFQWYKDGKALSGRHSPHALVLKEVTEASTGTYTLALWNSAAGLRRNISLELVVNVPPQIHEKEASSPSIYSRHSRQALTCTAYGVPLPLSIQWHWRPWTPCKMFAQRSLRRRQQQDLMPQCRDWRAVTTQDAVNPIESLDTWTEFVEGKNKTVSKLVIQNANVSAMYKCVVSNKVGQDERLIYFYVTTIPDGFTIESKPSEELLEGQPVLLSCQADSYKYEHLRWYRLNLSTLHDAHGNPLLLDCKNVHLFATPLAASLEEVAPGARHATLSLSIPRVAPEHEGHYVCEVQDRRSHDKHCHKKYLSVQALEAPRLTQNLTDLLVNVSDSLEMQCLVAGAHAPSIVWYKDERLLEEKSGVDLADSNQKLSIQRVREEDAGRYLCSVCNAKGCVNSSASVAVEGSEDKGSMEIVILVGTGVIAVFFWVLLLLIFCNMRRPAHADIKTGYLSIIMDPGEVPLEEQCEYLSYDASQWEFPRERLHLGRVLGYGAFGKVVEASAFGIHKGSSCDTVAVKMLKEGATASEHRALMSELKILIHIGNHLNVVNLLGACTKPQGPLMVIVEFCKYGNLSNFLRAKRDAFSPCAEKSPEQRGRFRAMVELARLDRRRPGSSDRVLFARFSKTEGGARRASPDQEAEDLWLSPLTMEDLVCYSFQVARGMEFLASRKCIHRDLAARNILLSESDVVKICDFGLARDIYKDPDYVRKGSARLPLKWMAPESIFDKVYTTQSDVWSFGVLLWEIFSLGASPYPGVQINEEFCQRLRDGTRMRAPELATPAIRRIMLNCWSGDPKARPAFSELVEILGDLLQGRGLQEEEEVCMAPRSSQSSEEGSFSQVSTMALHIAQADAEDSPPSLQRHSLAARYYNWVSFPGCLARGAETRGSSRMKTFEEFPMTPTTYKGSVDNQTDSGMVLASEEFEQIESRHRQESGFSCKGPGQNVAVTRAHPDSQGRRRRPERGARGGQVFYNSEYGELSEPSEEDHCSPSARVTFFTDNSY
# UniProt P06241, whole entry, looked up: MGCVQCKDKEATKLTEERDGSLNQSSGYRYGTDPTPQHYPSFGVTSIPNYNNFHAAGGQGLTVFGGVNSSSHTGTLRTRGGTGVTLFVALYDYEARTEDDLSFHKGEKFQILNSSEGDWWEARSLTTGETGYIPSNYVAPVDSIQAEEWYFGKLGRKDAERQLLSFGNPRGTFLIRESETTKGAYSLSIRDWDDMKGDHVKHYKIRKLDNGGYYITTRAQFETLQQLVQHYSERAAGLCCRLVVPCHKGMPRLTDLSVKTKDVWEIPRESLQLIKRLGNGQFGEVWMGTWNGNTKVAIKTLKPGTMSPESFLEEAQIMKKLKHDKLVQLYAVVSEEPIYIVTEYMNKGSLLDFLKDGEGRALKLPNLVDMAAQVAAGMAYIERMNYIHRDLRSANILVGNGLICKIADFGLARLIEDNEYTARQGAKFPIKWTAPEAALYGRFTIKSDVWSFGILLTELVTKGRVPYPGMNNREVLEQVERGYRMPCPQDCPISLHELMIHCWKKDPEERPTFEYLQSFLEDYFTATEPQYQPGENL
# UniProt Q8IW41: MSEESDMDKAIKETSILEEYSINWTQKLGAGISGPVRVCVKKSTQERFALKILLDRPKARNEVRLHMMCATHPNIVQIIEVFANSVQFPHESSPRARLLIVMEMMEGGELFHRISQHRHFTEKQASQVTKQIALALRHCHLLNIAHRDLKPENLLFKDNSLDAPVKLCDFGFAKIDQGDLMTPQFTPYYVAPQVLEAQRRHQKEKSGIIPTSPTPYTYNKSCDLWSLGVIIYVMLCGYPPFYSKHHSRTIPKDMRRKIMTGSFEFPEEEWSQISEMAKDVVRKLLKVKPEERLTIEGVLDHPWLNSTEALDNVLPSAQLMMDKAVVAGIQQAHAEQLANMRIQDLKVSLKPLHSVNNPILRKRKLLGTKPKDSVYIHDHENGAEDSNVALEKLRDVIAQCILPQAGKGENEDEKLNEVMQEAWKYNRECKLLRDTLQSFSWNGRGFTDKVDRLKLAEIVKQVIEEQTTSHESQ
# UniProt P42685: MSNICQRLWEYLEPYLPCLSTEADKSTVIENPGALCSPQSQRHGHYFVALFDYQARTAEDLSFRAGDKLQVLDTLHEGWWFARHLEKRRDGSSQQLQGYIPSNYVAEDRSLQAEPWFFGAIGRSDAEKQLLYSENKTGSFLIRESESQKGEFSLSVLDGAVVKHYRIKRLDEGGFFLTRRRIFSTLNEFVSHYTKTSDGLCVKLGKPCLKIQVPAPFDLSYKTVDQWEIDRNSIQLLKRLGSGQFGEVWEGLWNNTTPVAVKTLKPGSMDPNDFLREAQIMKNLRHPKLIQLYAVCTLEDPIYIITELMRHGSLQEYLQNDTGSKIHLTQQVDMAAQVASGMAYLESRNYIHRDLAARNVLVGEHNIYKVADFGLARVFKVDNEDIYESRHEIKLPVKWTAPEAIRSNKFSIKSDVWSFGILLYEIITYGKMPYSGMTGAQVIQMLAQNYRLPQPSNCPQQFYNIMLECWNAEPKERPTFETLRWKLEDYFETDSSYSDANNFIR
# UniProt P11309, whole entry, looked up: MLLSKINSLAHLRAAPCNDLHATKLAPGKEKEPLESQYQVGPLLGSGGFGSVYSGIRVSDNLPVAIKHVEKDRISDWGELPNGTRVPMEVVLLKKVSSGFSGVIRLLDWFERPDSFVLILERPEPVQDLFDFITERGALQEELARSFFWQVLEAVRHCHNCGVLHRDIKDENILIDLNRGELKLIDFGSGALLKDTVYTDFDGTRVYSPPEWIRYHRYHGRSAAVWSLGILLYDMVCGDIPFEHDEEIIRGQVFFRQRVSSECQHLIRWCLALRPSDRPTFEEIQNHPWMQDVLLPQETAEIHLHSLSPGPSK
# For some assays here: What follows is the remainder of the data, with few or none of the strong results. The list shows a part of the results, in another mix than the full data.
# Columns and labels:
# [1] = target: Tyrosine-protein kinase ABL2 (Homo sapiens) (UniProt P42684); settings: at 1 µM
# [2] = target: Aurora kinase A (Homo sapiens) (UniProt O14965); settings: at 10 µM
# [3] = target: Aurora kinase B (Homo sapiens) (UniProt Q96GD4); settings: at 1 µM
# [4] = target: Aurora kinase C (Homo sapiens) (UniProt Q9UQB9); settings: at 1 µM
# [5] = target: Protein-tyrosine kinase 6 (Homo sapiens) (UniProt Q13882); settings: at 10 µM
# [6] = target: Tyrosine-protein kinase BTK (Homo sapiens) (UniProt Q06187); settings: at 1 µM
# [7] = target: Tyrosine-protein kinase BTK (Homo sapiens) (UniProt Q06187); settings: at 10 µM
# [8] = target: Serine/threonine-protein kinase BRSK1 (Homo sapiens) (UniProt Q8TDC3); settings: at 1 µM
# [9] = target: Serine/threonine-protein kinase BRSK1 (Homo sapiens) (UniProt Q8TDC3); settings: at 10 µM
# [10] = target: CDK3/cyclin E (Homo sapiens) (UniProt P24864+O96020+Q00526); settings: at 10 µM
# [11] = target: T1, Cyclin-dependent kinase 5/CDK5 activator 1 (Homo sapiens) (UniProt Q00535+Q15078); settings: at 1 µM
# [12] = target: T1, Cyclin-dependent kinase 5/CDK5 activator 1 (Homo sapiens); settings: at 10 µM
# [13] = target: T1, Cyclin-dependent kinase 5/CDK5 activator 1 (Homo sapiens); settings: at 1 µM; remark: listed apart in the source
# [14] = target: T1, Cyclin-dependent kinase 5/CDK5 activator 1 (Homo sapiens); settings: at 10 µM; remark: listed apart in the source
# [15] = target: Cyclin-dependent kinase 7/ cyclin H (Homo sapiens) (UniProt P51946+P50613); settings: at 1 µM
# [16] = target: Serine/threonine-protein kinase Chk1 (Homo sapiens) (UniProt O14757); settings: at 1 µM
# [17] = target: Serine/threonine-protein kinase Chk2 (Homo sapiens) (UniProt O96017); settings: at 1 µM
# [18] = target: Serine/threonine-protein kinase Chk2 (Homo sapiens) (UniProt O96017); settings: at 10 µM
# [19] = target: Casein kinase I isoform delta (Homo sapiens) (UniProt P48730); settings: at 1 µM
# [20] = target: Casein kinase I isoform delta (Homo sapiens) (UniProt P48730); settings: at 10 µM
# [21] = target: Calcium/calmodulin-dependent protein kinase type II subunit beta (Homo sapiens) (UniProt Q13554); settings: at 10 µM
# [22] = target: Calcium/calmodulin-dependent protein kinase type II subunit gamma (Homo sapiens) (UniProt Q13555); settings: at 1 µM
# [23] = target: Death-associated protein kinase 1 (Homo sapiens) (UniProt P53355); settings: at 1 µM
# [24] = target: Death-associated protein kinase 1 (Homo sapiens) (UniProt P53355); settings: at 10 µM
# [25] = target: Serine/threonine-protein kinase DCLK2 (Homo sapiens) (UniProt Q8N568); settings: at 10 µM
# [26] = target: Discoidin domain-containing receptor 2 (Homo sapiens) (UniProt Q16832); settings: at 10 µM
# [27] = target: Ephrin type-A receptor 3 (Homo sapiens) (UniProt P29320); settings: at 10 µM
# [28] = target: Ephrin type-A receptor 7 (Homo sapiens) (UniProt Q15375); settings: at 1 µM
# [29] = target: Ephrin type-A receptor 8 (Homo sapiens) (UniProt P29322); settings: at 10 µM
# [30] = target: Ephrin type-B receptor 1 (Homo sapiens) (UniProt P54762); settings: at 1 µM
# [31] = target: Ephrin type-B receptor 2 (Homo sapiens) (UniProt P29323); settings: at 1 µM
# [32] = target: Receptor tyrosine-protein kinase erbB-4 (Homo sapiens) (UniProt Q15303); settings: at 10 µM
# [33] = target: Focal adhesion kinase 1 (Homo sapiens) (UniProt Q05397); settings: at 1 µM
# [34] = target: Focal adhesion kinase 1 (Homo sapiens) (UniProt Q05397); settings: at 10 µM
# [35] = target: Tyrosine-protein kinase Fes/Fps (Homo sapiens) (UniProt P07332); settings: at 10 µM
# [36] = target: Vascular endothelial growth factor receptor 1 (Homo sapiens) (UniProt P17948); settings: at 10 µM
# [37] = target: Vascular endothelial growth factor receptor 3 (Homo sapiens) (UniProt P35916); settings: at 1 µM
# [38] = target: Tyrosine-protein kinase Fyn (Homo sapiens) (UniProt P06241); settings: at 1 µM
# [39] = target: Mitogen-activated protein kinase kinase kinase kinase 2 (Homo sapiens) (UniProt Q12851); settings: at 10 µM
# [40] = target: G protein-coupled receptor kinase 6 (Homo sapiens) (UniProt P43250); settings: at 10 µM
# [41] = target: Rhodopsin kinase GRK7 (Homo sapiens) (UniProt Q8WTQ7); settings: at 10 µM
# [42] = target: Homeodomain-interacting protein kinase 1 (Homo sapiens) (UniProt Q86Z02); settings: at 1 µM
# [43] = target: Homeodomain-interacting protein kinase 2 (Homo sapiens) (UniProt Q9H2X6); settings: at 1 µM
# [44] = target: Homeodomain-interacting protein kinase 2 (Homo sapiens) (UniProt Q9H2X6); settings: at 10 µM
# [45] = target: Homeodomain-interacting protein kinase 3 (Homo sapiens) (UniProt Q9H422); settings: at 1 µM
# [46] = target: Homeodomain-interacting protein kinase 3 (Homo sapiens) (UniProt Q9H422); settings: at 10 µM
# [47] = target: Serine/threonine-protein kinase haspin (Homo sapiens) (UniProt Q8TF76); settings: at 1 µM
# [48] = target: Tyrosine-protein kinase HCK (Homo sapiens) (UniProt P08631); settings: at 1 µM
# [49] = target: Protein kinase C theta type (Homo sapiens) (UniProt Q04759); settings: at 10 µM
# [50] = target: Protein kinase C iota type (Homo sapiens) (UniProt P41743); settings: at 1 µM
# [51] = target: Serine/threonine-protein kinase D2 (Homo sapiens) (UniProt Q9BZL6); settings: at 1 µM
# [52] = target: T2, cGMP-dependent protein kinase 1 (Homo sapiens) (UniProt Q13976); settings: at 10 µM
# T2 sequence (whole entry): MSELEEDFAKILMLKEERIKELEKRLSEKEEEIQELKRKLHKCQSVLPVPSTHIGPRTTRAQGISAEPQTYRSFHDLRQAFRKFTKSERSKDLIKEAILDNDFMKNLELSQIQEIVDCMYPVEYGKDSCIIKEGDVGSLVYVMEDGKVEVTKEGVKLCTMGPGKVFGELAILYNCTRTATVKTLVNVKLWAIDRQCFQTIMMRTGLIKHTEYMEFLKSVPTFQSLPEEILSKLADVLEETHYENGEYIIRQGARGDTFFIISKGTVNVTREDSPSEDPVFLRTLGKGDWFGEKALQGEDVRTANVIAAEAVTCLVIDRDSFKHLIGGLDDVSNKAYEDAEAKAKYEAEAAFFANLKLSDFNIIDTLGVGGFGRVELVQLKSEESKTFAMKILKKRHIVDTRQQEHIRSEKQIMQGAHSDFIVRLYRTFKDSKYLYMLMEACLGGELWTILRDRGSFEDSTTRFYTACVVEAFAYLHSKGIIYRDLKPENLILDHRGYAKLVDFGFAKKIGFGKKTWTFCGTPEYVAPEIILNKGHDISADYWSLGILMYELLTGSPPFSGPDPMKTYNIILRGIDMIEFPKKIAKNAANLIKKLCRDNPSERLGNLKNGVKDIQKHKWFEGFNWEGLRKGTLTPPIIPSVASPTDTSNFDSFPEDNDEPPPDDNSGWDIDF
# [53] = target: T2, cGMP-dependent protein kinase 1 (Homo sapiens); settings: at 1 µM
# [54] = target: T2, cGMP-dependent protein kinase 1 (Homo sapiens); settings: at 10 µM; remark: listed apart in the source
# [55] = target: MAP kinase-activated protein kinase 5 (Homo sapiens) (UniProt Q8IW41); settings: at 1 µM
# [56] = target: Serine/threonine-protein kinase N2 (Homo sapiens) (UniProt Q16513); settings: at 1 µM
# [57] = target: Tyrosine-protein kinase FRK (Homo sapiens) (UniProt P42685); settings: at 1 µM
# [58] = target: Tyrosine-protein kinase FRK (Homo sapiens) (UniProt P42685); settings: at 10 µM
# [59] = target: Serine/threonine-protein kinase pim-1 (Homo sapiens) (UniProt P11309); settings: at 1 µM
# [60] = target: Serine/threonine-protein kinase pim-1 (Homo sapiens) (UniProt P11309); settings: at 10 µM
# [61] = target: Serine/threonine-protein kinase pim-3 (Homo sapiens) (UniProt Q86V86); settings: at 10 µM
# [62] = target: Receptor-interacting serine/threonine-protein kinase 2 (Homo sapiens) (UniProt O43353); settings: at 1 µM
smiles,measurement,setting,value
O=C1c2ccccc2-c2nc3nnnn3nc21,residual activity,[1],110%
same,residual activity,[2],86%
same,residual activity,[3],89%
same,residual activity,[4],96%
same,residual activity,[5],90%
same,residual activity,[6],86%
same,residual activity,[7],89%
same,residual activity,[8],81%
same,residual activity,[9],86%
same,residual activity,[10],96%
same,residual activity,[11],97%
same,residual activity,[12],96%
same,residual activity,[13],84%
same,residual activity,[14],104%
same,residual activity,[15],84%
same,residual activity,[16],95%
same,residual activity,[17],85%
same,residual activity,[18],89%
same,residual activity,[19],84%
same,residual activity,[20],98%
same,residual activity,[21],102%
same,residual activity,[22],120%
same,residual activity,[23],95%
same,residual activity,[24],85%
same,residual activity,[25],95%
same,residual activity,[26],92%
same,residual activity,[27],99%
same,residual activity,[28],103%
same,residual activity,[29],92%
same,residual activity,[30],96%
same,residual activity,[31],126%
same,residual activity,[32],87%
same,residual activity,[33],87%
same,residual activity,[34],91%
same,residual activity,[35],89%
same,residual activity,[36],89%
same,residual activity,[37],98%
same,residual activity,[38],94%
same,residual activity,[39],92%
same,residual activity,[40],91%
same,residual activity,[41],93%
same,residual activity,[42],96%
same,residual activity,[43],99%
same,residual activity,[44],92%
same,residual activity,[45],96%
same,residual activity,[46],90%
same,residual activity,[47],86%
same,residual activity,[48],89%
same,residual activity,[49],99%
same,residual activity,[50],inactive: 99%
same,residual activity,[51],96%
same,residual activity,[52],101%
same,residual activity,[53],103%
same,residual activity,[54],96%
same,residual activity,[55],93%
same,residual activity,[56],94%
same,residual activity,[57],95%
same,residual activity,[58],84%
same,residual activity,[59],85%
same,residual activity,[60],82%
same,residual activity,[61],97%
same,residual activity,[62],101%
